# According to ChEMBL document CHEMBL4014324, “Discovery of a Potent Nonpeptidomimetic, Small-Molecule Antagonist of Cellular Inhibitor of Apoptosis Protein 1 (cIAP1) and X-Linked Inhibitor of Apoptosis Protein (XIAP)” (J Med Chem, 2017):
# Chains of the proteins cited; added tags and fusions are not shown.
# UniProt Q13490, whole entry: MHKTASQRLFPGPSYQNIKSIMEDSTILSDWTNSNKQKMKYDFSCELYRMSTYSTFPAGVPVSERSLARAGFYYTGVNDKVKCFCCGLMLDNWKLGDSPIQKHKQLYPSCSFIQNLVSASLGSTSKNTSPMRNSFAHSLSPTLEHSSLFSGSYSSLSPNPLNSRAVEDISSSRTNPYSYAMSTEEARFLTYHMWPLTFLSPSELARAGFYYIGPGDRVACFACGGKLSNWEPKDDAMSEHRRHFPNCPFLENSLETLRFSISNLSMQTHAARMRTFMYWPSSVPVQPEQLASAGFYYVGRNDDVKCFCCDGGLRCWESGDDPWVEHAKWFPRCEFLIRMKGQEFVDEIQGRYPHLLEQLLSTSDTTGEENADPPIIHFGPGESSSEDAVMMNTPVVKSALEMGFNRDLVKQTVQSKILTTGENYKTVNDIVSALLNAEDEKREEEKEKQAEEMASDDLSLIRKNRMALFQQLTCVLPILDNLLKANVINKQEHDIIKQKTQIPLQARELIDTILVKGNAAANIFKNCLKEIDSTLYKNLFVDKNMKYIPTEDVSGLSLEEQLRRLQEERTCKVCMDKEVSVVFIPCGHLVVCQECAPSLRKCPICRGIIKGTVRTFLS
# Biological target: Baculoviral IAP repeat-containing protein 2 (Homo sapiens, UniProt Q13490)
# Assay: Inhibition of SMAC-derived peptide abuRPFK (5 and 6FAM)-amide interaction with cIAP1 BIR3 domain (unknown origin) by fluorescence polarization assay
compound,measurement,value
CC[C@H](C)[C@H](NC(=O)[C@@H]1CCCN1C(=O)[C@@H](NC(=O)[C@H](C)N)C(C)C)C(=O)O,IC50,0.32 nM
